Assay results: US8304394B2, “Low side effect pharmaceutical composition containing isoniazid” (priority 2008, dated 2012)

By UniProt entry, the sequences of proteins in these tests, tags left out. Where a name states a change or a piece, a line headed by the entry shows the natural chain unless it says otherwise.
UniProt P05181: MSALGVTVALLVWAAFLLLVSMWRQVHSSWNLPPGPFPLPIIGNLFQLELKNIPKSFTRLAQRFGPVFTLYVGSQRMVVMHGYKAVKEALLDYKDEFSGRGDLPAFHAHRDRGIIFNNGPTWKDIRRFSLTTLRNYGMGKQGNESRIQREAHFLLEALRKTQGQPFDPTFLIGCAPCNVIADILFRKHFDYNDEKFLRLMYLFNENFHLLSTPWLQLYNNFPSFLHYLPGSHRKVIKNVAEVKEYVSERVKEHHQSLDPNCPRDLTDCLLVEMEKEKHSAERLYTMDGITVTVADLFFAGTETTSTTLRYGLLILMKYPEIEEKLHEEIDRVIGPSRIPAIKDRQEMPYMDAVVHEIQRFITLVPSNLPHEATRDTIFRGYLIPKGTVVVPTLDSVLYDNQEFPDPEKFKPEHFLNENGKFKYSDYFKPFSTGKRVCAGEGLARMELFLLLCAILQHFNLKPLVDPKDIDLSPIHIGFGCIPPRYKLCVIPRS

Target: human liver microsomal cytochrome P450 2E1 (CYP2E1) (Homo sapiens, UniProt P05181)
Experiment: Chlorzoxazone hydroxylation inhibition (6-OH-CZX by LC/MS/MS)
Settings: tested concentration 66 μM

Question: Which “Inhibition of CYP 2E1 (%)” value does the source give for `Oc1cc(O)c2c(c1)O[C@@H](c1ccc(O)c(O)c1)[C@@H](O)C2` [(+)-Epicatechin] here?
Answer: Its value is 44.32 ± 1.25%.
